Assays:
[1] = biological target: yeast 20S proteasome (yCP) β5 subunit (ChTL) (Saccharomyces cerevisiae, UniProt P23724+P30656); experiment: X-ray crystal structure ([…] Å) and ChTL activity inhibition assay of yCP
[2] = biological target: yeast 20S proteasome (yCP) β2 subunit (TL) (Saccharomyces cerevisiae, UniProt P25043); experiment: X-ray crystal structure ([…] Å), mM soaking; weaker TL inhibition

In the case of CC(C)CCCCCCCCCC(=O)N[C@H](C(=O)N[C@H]1C[C@@H](O)CCNC(=O)/C=C/[C@H](C)NC1=O)[C@@H](C)O, the IC50 [1] is reported as 0.027 µM and the IC50 [2] is reported as > 0.2 µM.
